Source: US20220002435A1 (IMMUNOME, published 2022)

Experiments:
[1] = biological target: T1, human EPN1 expressed by human cell lines (human, UniProt Q9Y6I3 1-576); test: flow cytometry on intact A549 cells
T1 construct: Endogenous EPN1 of human tumour and normal cell lines, stained on live cells or on fixed and permeabilised cells, or immunoprecipitated; The cell lines were not engineered to express it; also called surface EPN1; huEPN1
T1 sequence: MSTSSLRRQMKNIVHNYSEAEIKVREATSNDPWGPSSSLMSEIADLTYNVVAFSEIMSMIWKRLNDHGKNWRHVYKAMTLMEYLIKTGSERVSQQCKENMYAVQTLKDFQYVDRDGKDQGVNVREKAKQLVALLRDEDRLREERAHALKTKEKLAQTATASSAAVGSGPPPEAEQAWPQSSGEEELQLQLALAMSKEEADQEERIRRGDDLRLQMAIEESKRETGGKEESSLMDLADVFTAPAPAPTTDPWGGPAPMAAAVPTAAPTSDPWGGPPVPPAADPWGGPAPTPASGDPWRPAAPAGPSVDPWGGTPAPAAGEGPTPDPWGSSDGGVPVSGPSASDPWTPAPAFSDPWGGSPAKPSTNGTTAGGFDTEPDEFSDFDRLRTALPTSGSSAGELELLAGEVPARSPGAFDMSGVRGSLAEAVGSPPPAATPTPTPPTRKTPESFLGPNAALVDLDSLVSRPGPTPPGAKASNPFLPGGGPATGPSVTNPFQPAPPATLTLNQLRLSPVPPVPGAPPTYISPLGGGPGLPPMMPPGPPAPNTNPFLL
Excerpt: Binding of IMM20059 to intact cells was detected with fluorophore-labelled anti-human secondary antibodies.
Full-length IgG1 antibody, containing the PR045-2H11 Ab VH and VL domains, was expressed recombinantly by transient transfection into mammalian cell lines, such as Chinese Hampster Ovary (CHO) and human embryonic kidney (HEK), or derivatives of those cell lines, using standard conditions. The recombinant antibody, referred to as IMM20059, was purified from conditioned media by affinity chromatography, buffer exchanged into PBS and analyzed for activity by flow cytometry. […] IMM20059 binds, to varying degrees, to the surfaces of cells included in a panel of human cancer cells, immortalized normal human cell lines, and mouse tumor lines (Table 1).

[2] = biological target: T1, human EPN1 expressed by human cell lines; test: flow cytometry, PC3 cells (human tumor line)
[3] = biological target: T1, human EPN1 expressed by human cell lines; test: flow cytometry, P29 Clone1 cells (human tumor line)
[4] = biological target: T1, human EPN1 expressed by human cell lines; test: flow cytometry, CAOV3 cells (human tumor line)
[5] = biological target: T1, human EPN1 expressed by human cell lines; test: flow cytometry, 22Rv1 cells (human tumor line)
[6] = biological target: T2, recombinant EPN1 (Origene, cat #TP307099) (human, UniProt Q9Y6I3 1-576); test: SPR, IMM20059 captured at 500 RU on CM5/Protein A, EPN1 in solution, 25° C.
T2 construct: Bought protein; also called Epsin-1; Epsin 1
T2 sequence: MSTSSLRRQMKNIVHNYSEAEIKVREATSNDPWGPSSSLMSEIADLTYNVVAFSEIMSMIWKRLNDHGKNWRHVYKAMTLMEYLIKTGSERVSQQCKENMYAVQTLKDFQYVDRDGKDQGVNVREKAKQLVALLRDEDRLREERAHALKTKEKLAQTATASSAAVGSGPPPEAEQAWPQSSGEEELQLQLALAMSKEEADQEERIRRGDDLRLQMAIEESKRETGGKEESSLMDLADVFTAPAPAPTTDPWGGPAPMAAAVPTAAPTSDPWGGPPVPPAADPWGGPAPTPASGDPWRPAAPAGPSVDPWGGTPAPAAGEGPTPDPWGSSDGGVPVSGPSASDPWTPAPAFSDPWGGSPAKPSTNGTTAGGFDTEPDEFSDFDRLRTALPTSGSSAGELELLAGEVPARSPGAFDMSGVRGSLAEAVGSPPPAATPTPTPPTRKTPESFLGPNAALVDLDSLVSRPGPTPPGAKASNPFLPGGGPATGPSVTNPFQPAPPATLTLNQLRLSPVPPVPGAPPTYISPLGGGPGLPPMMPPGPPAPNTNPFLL
Description: (§1) IMM20059 was captured at four different surface densities (500, 1000, 2600, and 2800 RU) on a CM5/Protein A sensor chip using 10 mM HEPES, pH 7.4, 150 mM NaCl, 0.005% Tween-20, 0.2 mg/mL BSA as a running buffer. EPN1 (Origene Cat #TP307099) or EPN2 (Origene Cat #TP310899) were diluted in running buffer to both 200 nM and 20 nM and analyzed for the ability to bind to the immobilized IMM20059 at 25° C. […] However, as detailed in Table 4, the observed off-rates for binding to EPN1 were dependent upon IMM20059 surface density, with the off-rate on the 500 RU surface being 2.4-times faster than the off-rate measured on the 2800 RU density surface.

[7] = biological target: T1, human EPN1 expressed by human cell lines; test: flow cytometry, HT1197 cells (human tumor line)
[8] = biological target: T1, human EPN1 expressed by human cell lines; test: flow cytometry, WM3211 cells (human tumor line)
[9] = biological target: T1, human EPN1 expressed by human cell lines; test: flow cytometry, PSN1 cells (human tumor line)
[10] = biological target: T1, human EPN1 expressed by human cell lines; test: flow cytometry, MCF7 cells (human tumor line)
[11] = biological target: T1, human EPN1 expressed by human cell lines; test: flow cytometry, A375 cells (human tumor line)
[12] = biological target: T1, human EPN1 expressed by human cell lines; test: flow cytometry, CAL27 cells (human tumor line)
[13] = biological target: T1, human EPN1 expressed by human cell lines; test: flow cytometry, H460 cells (human tumor line)
[14] = biological target: T2, recombinant EPN1 (Origene, cat …); test: SPR, IMM20059 captured on CM5/Protein A, 25° C.
Description: as §1

[15] = biological target: T1, human EPN1 expressed by human cell lines; test: flow cytometry, H522 cells (human tumor line)
[16] = biological target: T1, human EPN1 expressed by human cell lines; test: flow cytometry, CCD841con cells (human normal line)
[17] = biological target: T1, human EPN1 expressed by human cell lines; test: flow cytometry, HEK293 cells (human normal line)

B1: IMM20059 (antibody, human IgG1, kappa, V domains shown)
VH: EVQLVESGGGLVQPGGSLRLSCAASGFTFSIHSLNWVRQAPGKGLEWVSYISSNSTTIYYADSVKGRFTISRDNAKDSLYLQMNSLRDEDTAVYYCARDYYCTGGTCFFLPDLWGRGALVTVSS
VL: EIVLTQSPATLSLSPGERATLSCRASQNISNFLAWYQHKPGQAPRLLIYDASIRATGIPARFSGSGSGTDFSLTISSLEPEDFAVYFCQQRYNWLTFGGGTKVEIKR
EC50 [1]: 0.9 µg/mL
MFI (fold mean fluorescence index above isotype control) [2]: 7 fold
MFI (fold mean fluorescence index above isotype control) [3]: 21 fold
MFI (fold mean fluorescence index above isotype control) [4]: 8 fold
MFI (fold mean fluorescence index above isotype control) [5]: 20 fold
Kd [6]: 2.4 nM
koff [6]: 0.000587 s⁻¹
kon [6]: 244000 M⁻¹ s⁻¹
MFI (fold mean fluorescence index above isotype control) [7]: 3 fold
MFI (fold mean fluorescence index above isotype control) [8]: 3 fold
MFI (fold mean fluorescence index above isotype control) [9]: 3 fold
MFI (fold mean fluorescence index above isotype control) [10]: 2 fold
MFI (fold mean fluorescence index above isotype control) [11]: 5 fold
MFI (fold mean fluorescence index above isotype control) [12]: 13 fold
MFI (fold mean fluorescence index above isotype control) [13]: 30 fold
off-rate ratio (500 RU surface against 2800 RU surface) [14]: 2.4 fold
MFI (fold mean fluorescence index above isotype control) [15]: 3 fold
MFI (fold mean fluorescence index above isotype control) [16]: 8 fold
MFI (fold mean fluorescence index above isotype control) [17]: 5 fold
